Data as given in ChEMBL document CHEMBL5500411, “Discovery of Dual MER/AXL Kinase Inhibitors as Bifunctional Small Molecules for Inhibiting Tumor Growth and Enhancing Tumor Immune Microenvironment” (J Med Chem, 2024).

Sequences of proteins named here, by UniProt entry; tags and fusion partners are left off. A change or cut given only in a name is not applied to a line headed by its entry.
UniProt P36888, whole entry: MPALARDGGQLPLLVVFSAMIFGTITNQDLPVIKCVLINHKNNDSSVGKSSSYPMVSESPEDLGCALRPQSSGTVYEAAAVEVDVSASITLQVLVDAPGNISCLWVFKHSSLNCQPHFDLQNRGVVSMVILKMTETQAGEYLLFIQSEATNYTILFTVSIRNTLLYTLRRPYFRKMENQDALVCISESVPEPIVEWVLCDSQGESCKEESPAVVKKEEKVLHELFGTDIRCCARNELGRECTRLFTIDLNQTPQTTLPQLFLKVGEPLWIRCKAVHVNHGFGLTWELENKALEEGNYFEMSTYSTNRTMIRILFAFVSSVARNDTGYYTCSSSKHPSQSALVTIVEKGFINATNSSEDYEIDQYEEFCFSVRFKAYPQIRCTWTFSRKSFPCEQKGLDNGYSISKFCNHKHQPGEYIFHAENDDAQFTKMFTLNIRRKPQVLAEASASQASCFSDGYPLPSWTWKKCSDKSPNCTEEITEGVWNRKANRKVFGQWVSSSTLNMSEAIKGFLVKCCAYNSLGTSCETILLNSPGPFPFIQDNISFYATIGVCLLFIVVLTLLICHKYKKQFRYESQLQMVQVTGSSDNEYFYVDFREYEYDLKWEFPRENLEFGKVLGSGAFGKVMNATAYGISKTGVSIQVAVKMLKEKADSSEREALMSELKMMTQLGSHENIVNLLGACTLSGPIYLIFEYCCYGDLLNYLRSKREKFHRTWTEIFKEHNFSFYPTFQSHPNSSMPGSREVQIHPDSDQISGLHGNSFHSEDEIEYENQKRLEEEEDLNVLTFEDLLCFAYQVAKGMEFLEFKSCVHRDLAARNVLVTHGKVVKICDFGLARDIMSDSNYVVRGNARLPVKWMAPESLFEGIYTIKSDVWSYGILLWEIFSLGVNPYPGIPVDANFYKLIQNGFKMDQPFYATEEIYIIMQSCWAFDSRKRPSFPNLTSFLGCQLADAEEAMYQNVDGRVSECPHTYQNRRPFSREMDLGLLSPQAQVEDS
UniProt P10721, whole entry: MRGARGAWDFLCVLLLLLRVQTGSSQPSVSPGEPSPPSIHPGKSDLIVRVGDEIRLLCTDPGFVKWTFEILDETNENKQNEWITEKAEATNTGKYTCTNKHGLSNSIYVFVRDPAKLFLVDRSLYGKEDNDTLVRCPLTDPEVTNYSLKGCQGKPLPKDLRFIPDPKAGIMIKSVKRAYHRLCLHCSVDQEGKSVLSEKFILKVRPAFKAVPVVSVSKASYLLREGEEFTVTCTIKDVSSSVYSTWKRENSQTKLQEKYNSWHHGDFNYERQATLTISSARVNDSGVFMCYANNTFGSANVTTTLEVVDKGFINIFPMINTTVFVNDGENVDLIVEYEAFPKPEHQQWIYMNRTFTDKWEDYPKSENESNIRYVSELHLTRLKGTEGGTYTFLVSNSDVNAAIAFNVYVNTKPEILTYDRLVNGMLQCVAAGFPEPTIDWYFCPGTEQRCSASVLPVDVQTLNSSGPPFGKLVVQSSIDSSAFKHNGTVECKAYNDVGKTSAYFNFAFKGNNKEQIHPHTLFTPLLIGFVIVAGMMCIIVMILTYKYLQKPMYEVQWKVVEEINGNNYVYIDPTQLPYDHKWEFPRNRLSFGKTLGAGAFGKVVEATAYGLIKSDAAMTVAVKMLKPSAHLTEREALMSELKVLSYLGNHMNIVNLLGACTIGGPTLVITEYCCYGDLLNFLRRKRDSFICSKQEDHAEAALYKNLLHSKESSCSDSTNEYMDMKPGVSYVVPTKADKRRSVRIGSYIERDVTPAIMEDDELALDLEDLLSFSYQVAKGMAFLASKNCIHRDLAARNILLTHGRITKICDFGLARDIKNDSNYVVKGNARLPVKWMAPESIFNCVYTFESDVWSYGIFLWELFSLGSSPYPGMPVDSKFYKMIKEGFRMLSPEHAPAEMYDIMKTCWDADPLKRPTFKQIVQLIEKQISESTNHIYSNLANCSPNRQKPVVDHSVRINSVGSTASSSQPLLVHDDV
UniProt P04629: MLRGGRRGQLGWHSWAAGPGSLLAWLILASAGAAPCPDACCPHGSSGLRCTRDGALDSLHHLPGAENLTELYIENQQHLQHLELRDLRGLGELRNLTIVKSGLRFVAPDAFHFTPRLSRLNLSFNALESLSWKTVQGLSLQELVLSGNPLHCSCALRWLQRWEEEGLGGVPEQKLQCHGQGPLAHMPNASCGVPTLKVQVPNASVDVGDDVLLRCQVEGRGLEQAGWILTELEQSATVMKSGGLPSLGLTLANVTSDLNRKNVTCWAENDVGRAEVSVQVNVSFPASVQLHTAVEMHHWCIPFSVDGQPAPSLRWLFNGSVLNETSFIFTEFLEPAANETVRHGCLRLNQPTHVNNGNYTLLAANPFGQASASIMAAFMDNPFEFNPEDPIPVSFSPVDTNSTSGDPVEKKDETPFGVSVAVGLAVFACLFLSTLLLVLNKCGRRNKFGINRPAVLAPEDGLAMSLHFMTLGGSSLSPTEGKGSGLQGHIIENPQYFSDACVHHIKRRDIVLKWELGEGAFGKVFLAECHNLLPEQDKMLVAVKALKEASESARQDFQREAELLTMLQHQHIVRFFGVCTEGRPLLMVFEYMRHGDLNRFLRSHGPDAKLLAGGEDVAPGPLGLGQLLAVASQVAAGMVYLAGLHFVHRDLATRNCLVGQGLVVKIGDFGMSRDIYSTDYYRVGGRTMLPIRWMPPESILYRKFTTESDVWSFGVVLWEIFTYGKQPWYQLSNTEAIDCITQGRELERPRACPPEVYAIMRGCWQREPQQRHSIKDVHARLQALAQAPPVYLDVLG
UniProt Q16620, whole entry, looked up: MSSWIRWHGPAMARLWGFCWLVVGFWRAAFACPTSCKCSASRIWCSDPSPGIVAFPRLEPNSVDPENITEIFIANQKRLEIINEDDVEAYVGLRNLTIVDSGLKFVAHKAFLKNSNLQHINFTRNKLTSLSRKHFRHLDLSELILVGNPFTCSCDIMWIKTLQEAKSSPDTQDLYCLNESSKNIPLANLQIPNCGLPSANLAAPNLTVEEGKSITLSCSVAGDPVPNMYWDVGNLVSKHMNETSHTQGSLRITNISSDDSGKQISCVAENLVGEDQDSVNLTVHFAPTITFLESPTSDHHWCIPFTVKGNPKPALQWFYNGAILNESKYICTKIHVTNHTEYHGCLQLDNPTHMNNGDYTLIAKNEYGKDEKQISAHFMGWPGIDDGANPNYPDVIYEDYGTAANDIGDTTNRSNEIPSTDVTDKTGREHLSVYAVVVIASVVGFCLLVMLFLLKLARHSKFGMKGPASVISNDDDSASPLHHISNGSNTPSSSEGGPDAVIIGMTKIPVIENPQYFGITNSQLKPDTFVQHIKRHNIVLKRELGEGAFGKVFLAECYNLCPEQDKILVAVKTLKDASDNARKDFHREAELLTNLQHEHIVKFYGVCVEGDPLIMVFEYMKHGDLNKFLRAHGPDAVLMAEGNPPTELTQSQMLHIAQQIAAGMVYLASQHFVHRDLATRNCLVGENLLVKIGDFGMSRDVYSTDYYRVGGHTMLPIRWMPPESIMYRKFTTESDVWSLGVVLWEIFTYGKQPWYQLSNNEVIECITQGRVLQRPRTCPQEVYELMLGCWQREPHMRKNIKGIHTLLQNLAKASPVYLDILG
UniProt Q16288, whole entry, looked up: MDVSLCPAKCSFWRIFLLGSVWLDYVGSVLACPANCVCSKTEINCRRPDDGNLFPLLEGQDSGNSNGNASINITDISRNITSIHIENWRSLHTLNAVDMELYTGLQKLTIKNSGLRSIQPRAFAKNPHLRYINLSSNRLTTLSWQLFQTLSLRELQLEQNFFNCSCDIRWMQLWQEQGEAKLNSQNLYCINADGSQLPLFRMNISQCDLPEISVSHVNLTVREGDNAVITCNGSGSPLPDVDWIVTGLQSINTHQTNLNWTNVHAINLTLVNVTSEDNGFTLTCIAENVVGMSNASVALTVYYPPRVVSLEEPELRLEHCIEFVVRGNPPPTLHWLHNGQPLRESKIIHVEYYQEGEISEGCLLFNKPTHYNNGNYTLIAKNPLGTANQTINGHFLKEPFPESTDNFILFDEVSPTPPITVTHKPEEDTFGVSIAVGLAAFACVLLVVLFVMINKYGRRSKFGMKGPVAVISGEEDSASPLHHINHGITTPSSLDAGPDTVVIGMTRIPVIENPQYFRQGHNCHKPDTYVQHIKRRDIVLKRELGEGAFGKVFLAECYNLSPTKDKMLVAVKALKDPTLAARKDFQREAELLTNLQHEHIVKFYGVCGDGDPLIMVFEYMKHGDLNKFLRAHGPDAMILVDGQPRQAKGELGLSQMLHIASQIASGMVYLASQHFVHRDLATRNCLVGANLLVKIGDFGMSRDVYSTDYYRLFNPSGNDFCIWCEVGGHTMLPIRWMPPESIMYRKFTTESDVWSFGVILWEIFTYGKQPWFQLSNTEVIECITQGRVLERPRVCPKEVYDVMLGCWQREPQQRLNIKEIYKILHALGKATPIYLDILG

Key:
[1] = biological target: Receptor-type tyrosine-protein kinase FLT3 (Homo sapiens) (UniProt P36888); experiment: Inhibition of human FLT3 at 1 uM by radioactive HotSpot kinase assay
[2] = biological target: Mast/stem cell growth factor receptor Kit (Homo sapiens) (UniProt P10721); experiment: Inhibition of human c-KIT at 1 uM by radioactive HotSpot kinase assay
[3] = biological target: High affinity nerve growth factor receptor (Homo sapiens) (UniProt P04629); experiment: Inhibition of human TRKA at 1 uM by radioactive HotSpot kinase assay
[4] = biological target: BDNF/NT-3 growth factors receptor (Homo sapiens) (UniProt Q16620); experiment: Inhibition of human TRKB at 1 uM by radioactive HotSpot kinase assay
[5] = biological target: NT-3 growth factor receptor (Homo sapiens) (UniProt Q16288); experiment: Inhibition of human TRKC at 1 uM by radioactive HotSpot kinase assay

Measured: inhibition

CN(C)Cc1cccc(-c2c(-c3cnn(C)c3)oc3ncnc(Oc4ccc(NC(=O)c5cccn(-c6ccc(F)cc6)c5=O)cc4)c23)c1
active: all assays above

Active and inactive are the calls of the source.
